Some of these compounds have results that are not shown, active ones among them.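 Growth conditions: 96-well plates. Treatment: test compound, 48 hours, 5 concentrations. Analysis: linear interpolation between bracketing concentrations; unreached endpoints set to highest concentration. TGI: total growth inhibition.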
Tests used:
Assay in all cases: NCI-60 cell line screen, 48 h
OVCAR-3 ovarian = system: OVCAR-3 ovarian
SF-295 CNS = system: SF-295 CNS
CCRF-CEM leukemia = system: CCRF-CEM leukemia
T-47D breast = system: T-47D breast
SR leukemia = system: SR leukemia
NCI-H226 lung = system: NCI-H226 lung
KM12 colon = system: KM12 colon
HOP-62 NSCLC = system: HOP-62 NSCLC
MALME-3M melanoma = system: MALME-3M melanoma
SN12C renal = system: SN12C renal
NCI-H23 lung = system: NCI-H23 lung
COLO 205 colon = system: COLO 205 colon
HCC-2998 colon = system: HCC-2998 colon
MDA-MB-231 breast = system: MDA-MB-231 breast
A549 NSCLC = system: A549 NSCLC
OVCAR-8 ovarian = system: OVCAR-8 ovarian
HCT-116 colon = system: HCT-116 colon
SF-539 CNS = system: SF-539 CNS
LOX IMVI melanoma = system: LOX IMVI melanoma
SK-MEL-28 melanoma = system: SK-MEL-28 melanoma
EKVX NSCLC = system: EKVX NSCLC
786-0 renal = system: 786-0 renal
NCI/ADR-RES ovarian = system: NCI/ADR-RES ovarian
CAKI-1 renal = system: CAKI-1 renal
SNB-19 CNS = system: SNB-19 CNS
RXF 393 renal = system: RXF 393 renal
MOLT-4 leukemia = system: MOLT-4 leukemia
MDA-N = system: MDA-N
K-562 leukemia = system: K-562 leukemia
SK-OV-3 ovarian = system: SK-OV-3 ovarian
RPMI-8226 leukemia = system: RPMI-8226 leukemia
SNB-75 CNS = system: SNB-75 CNS
PC-3 prostate = system: PC-3 prostate
SF-268 CNS = system: SF-268 CNS
HCT-15 colon = system: HCT-15 colon
DU-145 prostate = system: DU-145 prostate
ACHN renal = system: ACHN renal
TK-10 renal = system: TK-10 renal
SK-MEL-5 melanoma = system: SK-MEL-5 melanoma
SW-620 colon = system: SW-620 colon
UACC-62 melanoma = system: UACC-62 melanoma
MCF7 breast = system: MCF7 breast
HL-60(TB) leukemia = system: HL-60(TB) leukemia
HT29 colon = system: HT29 colon
M14 melanoma = system: M14 melanoma
UACC-257 melanoma = system: UACC-257 melanoma
OVCAR-5 ovarian = system: OVCAR-5 ovarian
UO-31 renal = system: UO-31 renal
U251 CNS = system: U251 CNS
NCI-H522 lung = system: NCI-H522 lung
IGROV1 ovarian = system: IGROV1 ovarian

Measured: TGI

CC(C)C(O)(C(=O)OCC1=CC2CCN1CC2)c1ccccc1 (stereo unspecified)
> 100 µM: all assays above

Reference: PubChem BioAssay (NCI)
